# Laboratory results: PubChem BioAssay AID595 (National Center for Advancing Translational Sciences (NCATS), 2007)
# The list shows a part of the results, in another mix than the full data. Results filed as inconclusive are left out. The source made the active and inactive calls. Calls come from the whole dose curve; as a rule, active = well fitted curve in either direction with a large enough effect; inconclusive = small, poorly fitted or top-dose-only effect, or another doubt; inactive = flat fitted curve, though single readings scatter.
# System: Hsp90 C-terminal peptide / TPR2A (Hop) interaction, human
# Assay: qHTS Assay for Disrupters of an Hsp90 Co-Chaperone Interaction
# Details: AlphaScreen TPR2A-His6 binding biotin-Hsp90 C-terminal peptide; at 57 µM (top of the series)
# Excerpt: NIH Chemical Genomics Center [NCGC]
# NIH Molecular Libraries Screening Centers Network [MLSCN]
# Hsp90 (heat shock protein 90) is the essential molecular chaperone and it accounts for 1-2% of all cytosolic proteins and is critical for the activity of diverse cellular proteins that are involved in a variety of cellular processes, including development, cell cycle, and steroid hormone signaling. Its client proteins include signaling kinases such as IGF1R, Akt, v-Src, Raf-1; regulators of cell survival such as Bcr-Abl; and transcription factors such as mutated p53, estrogen and progesterone receptors. Hsp90 has emerged as an important target for cancer treatment due to its essential role in maintaining transformation and regulating the function of oncogenic signaling proteins.
# The in vivo function of Hsp90 is regulated by the binding and hydrolysis of ATP at its N-terminal. Geldanamycin binds to ATP site and inhibit Hsp90 function. […]
# The assay was performed on 1536-well white plate (untreated solid bottom). […] Plates were read on EnVision (PerkinElmer, Boston, MA).TPR2A-His6 was produced using a bacteria expression system and purified using a well developed method (Ghosh et al., 2000). […] TPR2A-His6 binding to biotin-Hsp90 will bring streptavidin donor beads and nickel chelate acceptor beads (PerkinElmer) together and can be measured by Alpha reading by EnVision (PerkinElmer). […]
# % is set by controls: 0 for no effect and ±100 for the full control effect.
row,SMILES,"activity change, negative = inhibition"
1,O=[N+]([O-])C(Cl)(Cl)Cl,inactive: -1.72%
2,CN(CCCl)CCCl,inactive: -1.53%
